Earlier results, collected in patent US8211906B1, “Method of inhibiting growth of neoplastic cells and inhibiting infection by administering an immune enhancer drug” (priority 2003, dated 2012).

System: herpes simplex virus
Details: hydrochloride solution injected subcutaneously in mice; cited from earlier work

## CC(C)Cn1cnc2c(N)nc3ccccc3c21 [imiquimod hydrochloride]
  effect on activity of vaccine against herpes simplex virus: enhanced the activity

Where a name gives a salt, the structure may show the parent alone.
